Protein sequences, listed by entry. Tags and fused reporters are not part of them.
UniProt P47712, whole entry: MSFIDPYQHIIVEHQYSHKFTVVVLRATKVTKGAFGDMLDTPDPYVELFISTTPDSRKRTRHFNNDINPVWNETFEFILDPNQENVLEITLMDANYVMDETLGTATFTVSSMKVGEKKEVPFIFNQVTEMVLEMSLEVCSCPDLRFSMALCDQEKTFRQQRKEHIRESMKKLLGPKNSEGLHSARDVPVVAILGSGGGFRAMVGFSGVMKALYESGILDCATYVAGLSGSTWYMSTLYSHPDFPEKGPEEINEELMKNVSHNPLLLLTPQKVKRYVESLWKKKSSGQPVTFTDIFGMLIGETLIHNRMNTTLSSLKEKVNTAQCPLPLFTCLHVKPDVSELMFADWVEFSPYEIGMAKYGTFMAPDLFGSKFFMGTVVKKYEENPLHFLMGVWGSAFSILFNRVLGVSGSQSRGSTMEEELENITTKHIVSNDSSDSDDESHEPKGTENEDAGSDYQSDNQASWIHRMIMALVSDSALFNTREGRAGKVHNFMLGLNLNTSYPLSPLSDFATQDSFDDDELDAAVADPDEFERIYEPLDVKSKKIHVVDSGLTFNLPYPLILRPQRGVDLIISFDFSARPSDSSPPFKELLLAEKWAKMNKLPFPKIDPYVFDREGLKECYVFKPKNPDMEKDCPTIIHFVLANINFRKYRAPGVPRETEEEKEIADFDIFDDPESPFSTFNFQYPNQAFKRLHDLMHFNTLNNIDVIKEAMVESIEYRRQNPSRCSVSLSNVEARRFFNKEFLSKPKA

According to US6924301B1, “Composition for treating or preventing arrhythmia” (Shionogi & Co., Ltd., priority 1999, dated 2005):

Molecular target: cPLA2 (Homo sapiens, UniProt P47712)
Assay: cPLA2 inhibitory activity
Assay type: biochemical
Settings: 1-palmitoyl-2-[14C]-arachidonoyl-sn-glycero-3-phosphocholine liposomes, 15 min at 37° C.
Experimental: The compounds of the present invention were tested for the cPLA2 inhibitory activity according to the method disclosed in […]. Roberts, […], and J. E. Putnam, J. Biol. Chem., 1991, 266, 5268-5272 as outlined below. […] The reaction mixture includes 50 mM HEPES buffer (pH 7.5), 1 mM calcium chloride, 150 mM sodium chloride, 0.1 mg/ml bovine serum albumin, and 1.7 mM dithiothreitol. To the reaction mixture was added the compound of the present invention and the substrate solution. The reaction was allowed to start by adding an enzyme and continued for 15 min at 37° C. The fatty acids released by the reaction were extracted by the method described in V. P. Dole, and H. Meinertz, J. Biol. Chem., 1960, 235, 2595-2599 and its radiation activity was measured on a liquid scintillation counter. Control was obtained by conducting the experiment in the same manner except that a compound of the present invention was not added.

`CC(C)CC(CC(C)C)N(CC(C)C)[C@@H]1C[C@@H](CNC(=O)c2ccc(/C=C3\SC(=O)NC3=O)cc2)N(C(=O)c2ccccc2C(=O)c2ccc(F)cc2F)C1` was tested, and the IC50 was 6.7 nM.
